Sequences of proteins named here, by UniProt entry; tags and fusion partners are left off. Residues count along the entry.
UniProt Q00960, 27-1482: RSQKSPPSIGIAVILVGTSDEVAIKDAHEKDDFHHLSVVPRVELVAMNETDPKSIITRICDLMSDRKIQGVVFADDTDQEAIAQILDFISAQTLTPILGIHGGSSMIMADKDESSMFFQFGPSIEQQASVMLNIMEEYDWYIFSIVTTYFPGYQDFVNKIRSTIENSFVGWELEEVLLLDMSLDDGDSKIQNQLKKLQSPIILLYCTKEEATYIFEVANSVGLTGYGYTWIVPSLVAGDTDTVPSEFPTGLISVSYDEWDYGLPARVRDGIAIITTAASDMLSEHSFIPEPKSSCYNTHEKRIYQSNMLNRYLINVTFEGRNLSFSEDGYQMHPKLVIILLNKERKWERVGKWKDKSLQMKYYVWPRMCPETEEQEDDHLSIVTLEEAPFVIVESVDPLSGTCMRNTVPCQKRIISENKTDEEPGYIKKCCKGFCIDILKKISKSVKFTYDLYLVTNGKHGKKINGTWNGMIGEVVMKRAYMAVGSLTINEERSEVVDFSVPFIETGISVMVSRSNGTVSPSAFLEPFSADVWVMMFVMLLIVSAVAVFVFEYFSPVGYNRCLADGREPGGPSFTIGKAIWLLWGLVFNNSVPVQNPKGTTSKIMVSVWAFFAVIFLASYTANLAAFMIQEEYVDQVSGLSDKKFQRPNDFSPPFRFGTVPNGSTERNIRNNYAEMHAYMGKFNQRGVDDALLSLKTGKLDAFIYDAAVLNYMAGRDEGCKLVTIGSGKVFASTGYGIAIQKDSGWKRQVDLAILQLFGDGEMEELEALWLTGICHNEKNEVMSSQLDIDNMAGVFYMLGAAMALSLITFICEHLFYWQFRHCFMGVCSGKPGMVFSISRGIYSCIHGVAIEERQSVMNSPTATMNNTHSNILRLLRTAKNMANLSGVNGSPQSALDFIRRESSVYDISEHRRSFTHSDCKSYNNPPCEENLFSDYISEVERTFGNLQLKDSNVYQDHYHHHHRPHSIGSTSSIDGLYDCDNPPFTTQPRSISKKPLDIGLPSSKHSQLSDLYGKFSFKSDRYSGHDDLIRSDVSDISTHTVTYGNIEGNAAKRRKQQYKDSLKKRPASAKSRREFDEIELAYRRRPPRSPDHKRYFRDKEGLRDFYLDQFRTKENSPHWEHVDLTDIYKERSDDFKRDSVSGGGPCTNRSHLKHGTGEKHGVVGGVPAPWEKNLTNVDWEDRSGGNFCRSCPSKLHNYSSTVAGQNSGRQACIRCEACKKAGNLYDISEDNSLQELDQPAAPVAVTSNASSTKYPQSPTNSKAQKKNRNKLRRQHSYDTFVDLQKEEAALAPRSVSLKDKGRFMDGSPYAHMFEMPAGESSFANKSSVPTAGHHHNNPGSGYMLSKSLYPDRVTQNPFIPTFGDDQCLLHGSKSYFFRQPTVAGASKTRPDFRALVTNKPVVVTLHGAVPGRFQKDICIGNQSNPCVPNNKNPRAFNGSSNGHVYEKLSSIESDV

In PMC5372361 (Scientific Reports, 2017):

Assays:
[1] = biological target: T1, ifenprodil binding site of NMDA receptors containing NR2B subunits (Rattus norvegicus, UniProt P35439+Q00960); test: Radioligand binding, competition with [3H]ifenprodil
T1 construct: we used a membrane preparation of rat cerebral hippocampus; from tissue; host or cells: rat hippocampal membranes

[2] = biological target: T2, MK-801 binding (intrachannel) site of NMDA receptor (Rattus norvegicus, UniProt P35439); test: Radioligand binding, competition with [3H]MK-801
T2 construct: we used a membrane preparation of rat cerebral hippocampus; from tissue; host or cells: rat hippocampal membranes

## CC12CC3CC(C)(C1)CC(N)(C3)C2.Cl [Memantine, 1-amino-3,5-dimethyladamantane hydrochloride]
[1]
  IC50: > 100 µM
[2]
  IC50: 1360 ± 86 nM
